The conditions of this data set: compared with wild type pepstatin A.

On to Iva-Val-Val-Sta-Phe-Sta, for which the water solubility entry is given as “low water solubility”.

The record behind these values is patent US20050010368A1, “Method for the prediction of binding targets and the design of ligands” (priority 1997, published 2005).
